Key:
[1] = species: Homo sapiens; assay: Selectivity for human recombinant CA9 over human recombinant CA2
[2] = biological target: Carbonic anhydrase 1 (Homo sapiens) (UniProt P00915)
[3] = biological target: Carbonic anhydrase 2 (Homo sapiens) (UniProt P00918)
[4] = biological target: Carbonic anhydrase 9 (Homo sapiens) (UniProt Q16790)

By UniProt entry, the sequences of proteins in these tests, tags left out. Where a name states a change or a piece, a line headed by the entry shows the natural chain unless it says otherwise.
UniProt P00915: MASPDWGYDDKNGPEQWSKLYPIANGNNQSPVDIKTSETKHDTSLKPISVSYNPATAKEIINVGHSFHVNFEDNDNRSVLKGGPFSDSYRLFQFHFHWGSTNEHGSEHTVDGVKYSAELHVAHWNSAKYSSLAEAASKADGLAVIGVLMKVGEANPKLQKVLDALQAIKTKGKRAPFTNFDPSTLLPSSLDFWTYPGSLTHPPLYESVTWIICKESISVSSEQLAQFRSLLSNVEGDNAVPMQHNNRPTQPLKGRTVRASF

NS(=O)(=O)c1ccc(CCNC(=O)CN(CC(=O)NO)S(=O)(=O)c2ccc(-c3ccccc3)cc2)cc1 gave a Selectivity ratio [1] of 2.69, a Kinact [2] of 2490 nM and a Kinact [3] of 35 nM. The Kinact [4] was 13 nM.
NS(=O)(=O)c1ccc(CCNC(=O)CN(CC(=O)NO)S(=O)(=O)c2ccc(Oc3ccccc3)cc2)cc1 was tested, and the Selectivity ratio [1] was 5.41, the Kinact [2] was 95 nM and the Kinact [3] was 65 nM. The Kinact [4] was 12 nM.

— ChEMBL document CHEMBL1146383, “Carbonic anhydrase inhibitors: inhibition of cytosolic/tumor-associated isoforms I, II, and IX with iminodiacetic carboxylates/hydroxamates also incorporating benzenesulfonamide moieties” (Bioorg Med Chem Lett, 2007)
